## Antibody variant affinities, Ab-95 light chain, assay 2

Source: Engelhart et al. 2022 (doi:10.1038/s41597-022-01779-4), MIT Lincoln Laboratory and A-Alpha Bio; data file from the FLAb repository.

Antigen: PDVDLGDISGINAS, a 14-residue peptide of the SARS-CoV-2 spike HR2 region.

Each scFv is VH, the linker GGGGSGGGGSGGGGS, VL, as in the parent Ab-95, and differs from it in the CDRs of the light chain only.
VH: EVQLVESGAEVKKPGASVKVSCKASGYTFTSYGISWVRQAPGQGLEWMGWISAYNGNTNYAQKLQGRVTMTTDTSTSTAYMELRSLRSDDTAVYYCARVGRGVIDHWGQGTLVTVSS
VL: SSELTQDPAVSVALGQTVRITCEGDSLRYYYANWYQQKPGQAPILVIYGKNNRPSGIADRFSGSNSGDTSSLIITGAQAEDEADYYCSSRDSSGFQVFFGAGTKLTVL

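In library AAYL52, one, two or three CDR residues were substituted; doubles and triples were drawn at random. In AlphaSeq, yeast of one mating type display the scFv and yeast of the other type display the target. Binding brings cells together so that they mate, and sequencing counts the barcode pairs among the diploids. Each replicate has its own calibration line, from reference interactions of the BCL2 family. There are three technical replicates.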

Each variant is given by its three light chain CDRs, as the data file delimits them; those of the parent are EGDSLRYYYAN, GKNNRPS, SSRDSSGFQVF. All variants listed here change F95 of the VL, counted from its first residue. Kd is apparent (estimated from mating counts) and averaged on the log scale over replicates with a signal. Smaller is tighter. As a blank, each scFv also met three strains without target: over library AAYL52, 28% of these pairings were detected, typically at 8.2 µM and seldom below 800 nM.

With EGDSLRYYYAN | GKVNRPS | SSRDSYGTQVF the result was 480 nM (3 of 3 replicates). For EWDSLRYYYAN | GKTNRPS | SSRDSSGKQVF, the assay gave 2.3 µM (1 of 3 replicates). The variant EGDSSRYYYAN | GKNNRPS | SSRDSSGMQNF showed 7.9 µM (1 of 3 replicates). For EGDSLRYYYAN | GVNNRPS | SSRDSSGYQVF, the assay gave 99 nM (3 of 3 replicates). With EGDSLRYYYAN | GKNNRPS | SSRDNSDVQVF the result was 3.3 µM (3 of 3 replicates). The variant EGDSRRYYYAN | GCNNRPS | SSRDSSGNQVF gave 6.8 µM (2 of 3 replicates). With EGDSLRYNKAN | GKNNRPS | SSRDSSGKQVF the result was 24 nM (3 of 3 replicates). With EGDSLRYYYAN | GKNNRPM | SSFDSSGHQVF the result was 500 nM (3 of 3 replicates). The variant EGDVLRYYYAN | QKNNRPS | SSRDSSGHQVF showed 4.1 µM (1 of 3 replicates).

For EGDSLRYYYAN | GKNNRPS | SQRDSSEEQVF, the assay gave 540 nM (3 of 3 replicates). The variant EGDSLRYYEAN | GKPNRPS | SSRDSSGLQVF showed 12 µM (3 of 3 replicates). The variant EGDSLRYYPAN | GKNNRPS | SCRDSSGNQVF showed 30 nM (3 of 3 replicates). With EGDSLRYYYAN | GKNNRPS | SFRDSSGMQLF the result was 29 µM (1 of 3 replicates). With EGDSLRYYNAN | GKNNRPS | ISRDSSGAQVF the result was 26 nM (3 of 3 replicates). The variant EGDSLRYYYAN | GKNNRPS | SSRDSTGEQVF gave 350 nM (3 of 3 replicates). The variant EGDSLRYYYPN | GKNNRPS | SSDDSSGPQVF showed 610 nM (3 of 3 replicates). With EGDSLRYYHAN | GKNNSPS | SSRDSSGPQVF the result was 540 nM (3 of 3 replicates). The variant EGDSLRYYYAN | GLNNRPS | SSRDLSGYQVF gave 650 nM (3 of 3 replicates).

The variant EGLSLRYYYAN | GKNNRPS | SSRDSSGMQVF gave 510 nM (3 of 3 replicates). For EGDSLRYYYAN | GPNNRPS | SIRDSSGMQVF, the assay gave 12 µM (2 of 3 replicates). The variant EGDSLRYYYAN | GKNNRPS | SSRTSHGWQVF showed 1.1 µM (1 of 3 replicates). For EGYSLRYYYAN | GKNNRPS | SSRDSDGDQVF, the assay gave 490 nM (3 of 3 replicates). The variant EGDSLRYYDAN | GKNNRPS | SSRDSSGPQVF gave 29 nM (3 of 3 replicates). The variant EGQSLRYYYAN | AKNNRPS | SSRDSSGQQVF gave 3.4 µM (3 of 3 replicates). The variant EGRSLRYYYAN | GKNNRPS | SSRDSSCTQVF gave 9.8 µM (3 of 3 replicates). With EGDSLRYYYAN | GKNNRPS | SPRDSSGIQRF the result was 620 nM (3 of 3 replicates). With EGDSLRRTYAN | GKNNRPS | SSRDSSGMQVF the result was 110 nM (3 of 3 replicates).

With EGSSLRYYYAN | GKNNRPS | SSRDSSGDQVF the result was 760 nM (3 of 3 replicates). With EGDSLRYYYAN | GKNNRPS | SFRDSSGMFVF the result was 10 µM (1 of 3 replicates). The variant EGDSLRHYYAN | GKNNRPS | SSDDSSGPQVF showed 530 nM (3 of 3 replicates). With EGDSLRYYEAN | GKNNRPS | SSGDSSGKQVF the result was 20 µM (2 of 3 replicates). The variant EGDSLRYYYFV | GKNNRPS | SSRDSSGCQVF gave 10 µM (1 of 3 replicates). With EWDSLRYYYAN | GKNNRPS | SSRTSSGQQVF the result was 18 µM (3 of 3 replicates). The variant EGDSLRYYYAN | GKNNRPS | SSEDSSDPQVF gave 17 µM (2 of 3 replicates). With EGDSLRYYYAN | GKNNRPS | SSRDSSGDQYF the result was 1.1 µM (3 of 3 replicates). For EGDSLMYYYAN | GKNNRPS | SSRDSRGYQVF, the assay gave 1.4 µM (3 of 3 replicates).

The variant EGDSLRYYYYN | GKNNRPS | SSRDSSGAQVH gave 25 µM (3 of 3 replicates). The variant EGDSLRYYYAN | GKNNRPC | SSRDSSGDQVQ showed 6.8 µM (1 of 3 replicates). The variant EGDSLRPYYAN | GKNNRPS | SIRDSSGLQVF showed 6.3 µM (3 of 3 replicates). The variant EGDSLRYYYAN | GKNNRPS | SWRDSSGEQVF gave 350 nM (3 of 3 replicates).

For reference, 3 entries of the list once more:

With EGDSLRYYYAN | GKNNRPS | SSRDNSDVQVF the result was 3.3 µM (3 of 3 replicates).
With EGDSLRYYHAN | GKNNSPS | SSRDSSGPQVF the result was 540 nM (3 of 3 replicates).
With EGDSLRYYYAN | GVNNRPS | SSRDSSGYQVF the result was 99 nM (3 of 3 replicates).

For reference, the parent read 200 nM as the reference entry and 180 nM as a member of this library.